# From PubChem BioAssay AID602363 (Broad Institute, 2012)
# About 450 (0.13%) of roughly 350,000 compounds were called active. This is one part of a sample in which actives are shown more often than they occur. A number with no mark means an inactive call.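 Rule for the calls: active = replicate mean at a twofold rise or more (about +100% in these data); inactive = the rest.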
# Assay: modulators of yeast start codon fidelity, primary screen, whole organism, S. cerevisiae, single point, plate reader (AID 602363);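 note: firefly luciferase made from a UUG start codon reports start codon fidelity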
# Details: S. cerevisiae UUG-firefly luciferase reporter, luminescence/redox ratio; at 18.7 µM; hits give high values
row,SMILES,activity score
1,COc1ccc(NC(=O)Nc2cccc3c2O[C@@H](CN(C)Cc2ccncc2)[C@H](C)CN([C@H](C)CO)C3=O)cc1,-5.85%
2,CC(C)C#Cc1ccc2c(c1)O[C@@H](CN(C)C(=O)Nc1ccccc1)[C@H](C)CN([C@H](C)CO)S2(=O)=O,-2.56%
3,CCC(=O)N(C)C[C@@H]1Oc2ncc(C#CCC3CCCC3)cc2C(=O)N([C@@H](C)CO)C[C@H]1C,5.33%
4,O=C(c1ccncc1)N1C[C@H]2[C@@H](c3ccccc31)[C@H](CO)N2C(=O)c1ccccn1,-20.1%
5,O=C(N[C@H]1CC[C@@H](CCNS(=O)(=O)c2ccc(Cl)cc2)O[C@H]1CO)c1cccc(F)c1,12.6%
6,CC(C)CC#Cc1cnc2c(c1)C(=O)N([C@H](C)CO)C[C@H](C)[C@@H](CN(C)Cc1ccccc1)O2,16.5%
7,C[C@H](CO)N1C[C@H](C)[C@@H](CN(C)C(=O)C2CCCCC2)Oc2cc(-c3ccccc3)ccc2S1(=O)=O,9.53%
8,C[C@H]1CN([C@@H](C)CO)C(=O)c2cc(NC(=O)Cn3cnnn3)ccc2O[C@@H]1CN(C)S(=O)(=O)c1cccs1,-10.2%
9,O=C(O)C[C@@H]1C[C@@H]2c3cc(NC(=O)NC4CCCC4)ccc3O[C@@H]2[C@H](CO)O1,-9.94%
10,COc1cccc(S(=O)(=O)Nc2ccc3c(c2)[C@H]2C[C@H](CC(=O)O)O[C@H](CO)[C@H]2O3)c1,-0.528%
11,Cc1noc(C)c1NC(=O)Nc1ccc2c(c1)C(=O)N([C@H](C)CO)C[C@H](C)[C@@H](CN(C)Cc1ccc3c(c1)OCO3)OCCCC[C@@H](C)O2,-5.08%
12,C[C@@H]1CN([C@@H](C)CO)C(=O)c2cc(C#CC(C)(C)O)cnc2O[C@@H]1CN(C)C(=O)C1CCOCC1,-1.48%
13,CCc1ccc(NC(=O)CN2C(=O)CSC2=O)cc1,-4.72%
14,Cc1cccc(NC(=O)CN2C(=O)CNC2=O)c1,-17.5%
15,CC(=O)N1CC(=O)N(CC(=O)Nc2ccc(Br)cc2)C1=S,120% (active)
16,CCCNC(=O)N(C)C[C@H]1Oc2ncc(C#CC(C)C)cc2C(=O)N([C@@H](C)CO)C[C@@H]1C,11.9%
17,CO[C@H]1CN(C)C(=O)c2cc(NC(=O)c3cc(C)on3)ccc2OC[C@H](C)N(C(C)=O)C[C@H]1C,7.59%
18,O=C(Cc1ccccn1)N[C@H]1CC[C@H](CCNS(=O)(=O)c2cccc(F)c2)O[C@@H]1CO,-14.5%
19,CC(=O)N1C[C@@H]2[C@H](c3ccccc31)[C@H](CO)N2C(=O)Nc1ccc(F)cc1,27%
